Reference: ChEMBL document CHEMBL1154735, “A strategy to minimize reactive metabolite formation: discovery of (S)-4-(1-cyclopropyl-2-methoxyethyl)-6-[6-(difluoromethoxy)-2,5-dimethylpyridin-3-ylamino]-5-oxo-4,5-dihydropyrazine-2-carbonitrile as a potent, orally bioavailable corticotropin-releasing factor-1 receptor antagonist” (J Med Chem, 2009)

Assay: Metabolic stability in human liver microsomes assessed as compound remaining at 3 uM after 10 mins by HPLC/UV/MS analysis
Assay type: ADME, Microsome
Conditions: read-out: Stability
Procedure, shortened: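 Pooled human or rat liver microsomes (1 mg/mL protein) with 3 μM compound and 1.3 mM NADPH in 100 mM sodium phosphate pH 7.4 at 37 °C; final 0.015% DMSO, 0.985% acetonitrile; stopped at 0 and 10 min, percent remaining by LC/MS/MS.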

SMILES: COC[C@H](C1CC1)n1cc(Cl)nc(Nc2cc(C)c(OC(F)F)nc2C)c1=O
- remaining at 10 min, 3 µM: 93%
